The target in experiment [1] is T1, ORL1 (Homo sapiens, UniProt P41146). In words: ORL1 receptor binding, [3H]N/OFQ binding to membranes of transfected CHO cells. Particulars: CHO cell membranes transfected with human ORL1.
In experiment [2] the target is T1, ORL1. Nature of the experiment: [35S]GTPγS binding functional activity and agonist/antagonist evaluation. The following applies: for LIGAND (agonist or antagonist): compared with dose response of full agonist N/OFQ; for Kb: read-out: Functional Activity ORL1 [35S]GTPγS Ke, Ke=[A]/(Dose ratio−1), antagonist, 60 min; for EC50: read-out: Functional Activity ORL1 [35S]GTPγS EC50, cell membranes, 60 min at 25° C. A general note: GTPγS resists hydrolysis and so accumulates on activated G proteins.

Sequences of proteins named here, by UniProt entry; tags and fusion partners are left off. A change or cut given only in a name is not applied to a line headed by its entry.
UniProt P41146: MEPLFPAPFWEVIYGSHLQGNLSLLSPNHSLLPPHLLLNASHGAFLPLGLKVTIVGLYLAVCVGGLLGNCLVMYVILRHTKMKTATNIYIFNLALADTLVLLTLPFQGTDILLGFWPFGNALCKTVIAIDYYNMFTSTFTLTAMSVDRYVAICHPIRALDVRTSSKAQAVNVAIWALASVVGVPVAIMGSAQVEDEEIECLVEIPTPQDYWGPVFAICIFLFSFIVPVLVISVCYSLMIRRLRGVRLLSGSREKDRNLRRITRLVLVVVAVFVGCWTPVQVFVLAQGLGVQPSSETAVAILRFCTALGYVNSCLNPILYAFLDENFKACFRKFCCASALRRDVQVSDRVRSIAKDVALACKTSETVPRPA

Consider `O=C1Cc2ccccc2N1C1CCN(C2CCCc3ccccc32)CC1` (centres unmarked), for which the inhibition constant (Ki) – broadly, a measure of affinity in units of concentration, obtained from inhibition or displacement – in experiment [1] worked out at 11.7 nM.
Consider `O=C1Cc2ccccc2N1C1CCN(C2C3CCCC2CCC3)CC1` (centres unmarked), for which, in experiment [2], the “LIGAND (agonist or antagonist)” value was “agonist”.
In experiment [1], `CC1(C)C2CCC(CN3CCC(N4C(=O)Cc5ccccc54)CC3)C1C2` (centres unmarked) registered a Ki of 15.5 nM. In experiment [2], the “LIGAND (agonist or antagonist)” value was “antagonist” and the Kb was found to be 67.1 nM.
In experiment [1], `O=C1Cc2ccccc2N1C1CCN(Cc2ccccc2)CC1` registered an inhibition constant (Ki) of 201 nM. In addition, in experiment [2], the “LIGAND (agonist or antagonist)” value is reported as “agonist” and the EC50 (in general, the concentration needed to bring the measured effect to its halfway point) came out at 174 nM.
Molecule `O=C1Cc2ccccc2N1C1CCN(CC2CCCCCCC2)CC1` returned an inhibition constant (Ki) in experiment [1] of 6.04 nM. Besides, in experiment [2], the “LIGAND (agonist or antagonist)” value was “antagonist” and the Kb turned out to be 15.3 nM.
On to `O=C1Cc2ccccc2N1C1CCN(C2CCc3ccccc3C2)CC1` (centres unmarked), for which the Ki in experiment [1] came to 29.3 nM. Besides, in experiment [2], the “LIGAND (agonist or antagonist)” value is on record as “agonist” and the half-maximal effective concentration (EC50) came out at 92.5 nM.
For the molecule `O=C1Cc2ccccc2N1C1CCN(C2CCC3CCCCC3C2)CC1` (single isomer, unassigned), in experiment [2], the “LIGAND (agonist or antagonist)” value is given as “agonist”.
Molecule `O=C1Cc2ccccc2N1C1CCN(C2CCCCCCC2)CC1` displayed a Ki in experiment [1] of 1.39 nM. In experiment [2], the “LIGAND (agonist or antagonist)” value is given as “agonist” and the EC50 stood at 19.9 nM.
`CC(c1ccc2c(c1)Cc1ccccc1-2)N1CCC(N2C(=O)Cc3ccccc32)CC1` (centres unmarked) showed a Ki in experiment [1] of 135 nM. Also, the “LIGAND (agonist or antagonist)” value in experiment [2] is “antagonist”.
The molecule `O=C1Cc2ccccc2N1C1CCN(C2CCC3CCCCC3C2)CC1` (centres unmarked) displayed a Ki in experiment [1] of 5.64 nM. Further, in experiment [2], the “LIGAND (agonist or antagonist)” value is on record as “agonist” and the EC50 was determined as 16 nM.
Regarding `CC1(C)[C@@H]2CC[C@@]1(C)[C@@H](N1CCC(N3C(=O)Cc4ccccc43)CC1)C2`, the inhibition constant (Ki) in experiment [1] is above 10000 nM.
Take `O=C1Cc2ccccc2N1C1CCN(C2CCCC3CCCCC32)CC1` (centres unmarked): the Ki in experiment [1] amounted to 15.6 nM. Moreover, in experiment [2], the “LIGAND (agonist or antagonist)” value was “agonist” and the 50% effective concentration (EC50) amounted to 117 nM.
Regarding `CC(c1ccc(C2CCCCC2)cc1)N1CCC(N2C(=O)Cc3ccccc32)CC1` (centres unmarked), the Ki in experiment [1] came out at 253 nM. In experiment [2], the “LIGAND (agonist or antagonist)” value is reported as “antagonist”.

These data come from patent US20050228023A1, “Agonist and antagonist ligands of the nociceptin receptor” (published 2005).
